# From US20100076194A1, “SUBSTITUTED 3-AMINO-1-OXO OR THIOXO-1,2,5,6,7,8-HEXAHYDRO-2,7-NAPHTHYRIDINE-4-CARBONITRILES ARE SELECTIVE ALPHA 2B ANTAGONISTS” (ALLERGAN, INC., priority 2008, published 2010)
# The chains behind the UniProt entries cited, without tags or fusion partners.
# UniProt P30545, whole entry: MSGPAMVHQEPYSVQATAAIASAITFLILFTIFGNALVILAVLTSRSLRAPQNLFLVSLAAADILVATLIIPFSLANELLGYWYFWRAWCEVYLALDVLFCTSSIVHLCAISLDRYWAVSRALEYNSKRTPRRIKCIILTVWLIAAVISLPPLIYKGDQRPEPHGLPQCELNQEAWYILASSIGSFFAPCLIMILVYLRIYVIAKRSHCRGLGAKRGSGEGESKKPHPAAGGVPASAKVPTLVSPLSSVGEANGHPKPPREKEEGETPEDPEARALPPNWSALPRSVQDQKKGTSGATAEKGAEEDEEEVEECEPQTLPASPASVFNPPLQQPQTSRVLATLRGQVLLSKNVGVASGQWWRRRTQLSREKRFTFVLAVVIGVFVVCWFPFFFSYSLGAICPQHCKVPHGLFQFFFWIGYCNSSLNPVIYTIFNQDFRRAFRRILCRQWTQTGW
# Molecular target: alpha adrenergic 2B receptor (Mus musculus, UniProt P30545)
# Settings: vs norepinephrine, FIG. 1B
smiles,measurement,value
"CN1CCc2c(C#N)c(N)n(C)c(=S)c2C1 [Example 5, 3-amino-2,7-dimethyl-1-thioxo-1,2,5,6,7,8-hexahydro-2,7-naphthyridine-4-carbonitrile]",antagonist selectivity as determined by the Schild analysis,selective alpha adrenergic 2B receptor antagonist
